This experiment has as its system bradykinin. In words: Bradykinin level in SHRs (ELISA). Format: in vivo, spontaneously hypertensive rats (SHRs). Particulars: captopril 12 mg/kg oral, plasma, n = 6, model group 61.11 ± 5.07, normotensive control 92.45 ± 8.94.

For `C[C@H](CS)C(=O)N1CCC[C@H]1C(=O)O` [captopril], the BK concentration is reported as 71.81 ± 5.87 pg/mL.

The values are drawn from paper PMC12251161, “Crucian Carp-Derived ACE-Inhibitory Peptides with In Vivo Antihypertensive Activity: Insights into Bioactivity, Mechanism, and Safety” (Molecules, 2025).
